Data on two compounds can be found in ChEMBL document CHEMBL4610124, “Novel Thienopyrimidine Inhibitors of Leishmania N-Myristoyltransferase with On-Target Activity in Intracellular Amastigotes” (J Med Chem, 2020).

The structures appear in SMILES notation.

For this data set, the system named is human NMT1 versus Leishmania donovani NMT. The data set can be described thus: Selectivity ratio of IC50 for human NMT1 to IC50 for Leishmania donovani NMT. It counts as toxicity. To be noted: read-out: Ratio IC50.

For `CN(CCC#N)c1nc(N(C)[C@H]2C[C@H]3CC[C@@H](C2)N3C)nc2ccccc12`, the selectivity ratio was above 6.
As to `CN(CCC#N)c1nc(N(C)C2CCNCC2)nc2ccccc12`, the selectivity ratio was above 88.
